Screening results as filed in PubChem BioAssay.
Statin myotox sup: suppression of simvastatin myotoxicity; rescue of ATP level, % at 7.49 µM; 330,000 compounds, 0.78% hits; AID 602340; C2C12 myotubes + simvastatin, ATP luminescence, 48 h; scaled: DMSO 0, geranylgeraniol control 100;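 active = mean ATP rescue above about 67%, or every replicate alone reaching that limit, limit read from the data, passing the limit was not always enough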;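 note: myotubes were challenged with 10 µM simvastatin during compound exposure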
miR122 inh: miR-122 inhibition in Huh7 cells; activation (reporter increase), % at 12.5 µM; Huh7 miR-122 Renilla luciferase sensor, 48 h; neutral wells = 0, positive control = 100; 340,000 compounds, 0.3% hits;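 active = mean replicate activation score at least 90 and every replicate individually at or above 90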;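 note: higher luciferase means less miR-122 activity so hits act as miR-122 inhibitors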
Glyco luc inh: N-linked glycosylation inhibition; D54 ERlucT glycosylation luciferase reporter, 24 h; percent of 100 nM tunicamycin response; reporter increase, % at 12.5 µM; 360,000 compounds, 0.23% hits; AID 588692;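 active = mean luciferase reporter signal, scaled so untreated is 0 and the glycosylation-blocking control 100, at or above a set limit in every replicate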;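 note: luciferase carries N-glycosylation sites so blocking glycosylation raises the light; 0% = median of neutral control wells and 100% = median of 100 nM tunicamycin wells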
Cneo AK release: Cryptococcus neoformans lysis via adenylate kinase release; C. neoformans lysis, adenylate kinase release luminescence, 4 h; normalised: neutral wells 0, clomiphene wells 100; lysis activity, % at 15 µM; 360,000 compounds, 0.2% hits; AID 651654;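 active = mean lysis activity across replicates of at least 80%, whatever share of replicates individually reach that level; inactive = mean lysis activity below 80%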
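Material – log-phase Cryptococcus neoformans yeast cells · Input – 5 × 10^6 yeast cells/mL · Medium – fresh YPD growth medium · Doses – single compound concentration per well · Timing – static 4 h at 37 °C with compound, 1 h detection · Detection – adenylate kinase release luminescence · Read-out – signal increase indicating cell lysis · Control set – Clomiphene as positive lysis control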
Yeast UUG start: modulators of yeast start codon fidelity, primary screen, whole organism, S. cerevisiae, single point, plate reader | S. cerevisiae UUG-firefly luciferase reporter, luminescence/redox ratio | activity score, % at 18.7 µM | hit rate 0.13% among 350,000;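 active = replicate mean at a twofold rise or more, about +100% in these data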;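 note: firefly luciferase made from a UUG start codon reports start codon fidelity; reporter light over untreated wells divided by growth signal over untreated wells; some hits fall short of that in this replicate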
The depositor's hits bear a star; . = no result given; [ ] = remark or other dose. Shown are actives, neighbours in structure and some others; about 1.2% of the full set was active somewhere.

nr	compound	Statin myotox sup	miR122 inh	Glyco luc inh	Cneo AK release	Yeast UUG start
1	CN1C(=O)c2cc(NC(=O)NCc3ccccc3)ccc2OC[C@@H]2O[C@@H](CC(=O)NCC3CCCCC3)CC[C@@H]21	56.2	120.0*[16.7 µM]	.	-0.7	-11.1
2	CN1C(=O)c2cc(NC(=O)Cc3cccs3)ccc2OC[C@@H]2O[C@H](CC(=O)NCc3ccc(-c4ccccc4)cc3)CC[C@@H]21	-1.9	188.3*[16.7 µM]	.	-2.6	.
3	CN1C(=O)c2cc(NC(=O)Cc3cccs3)ccc2OC[C@H]2O[C@@H](CC(=O)O)CC[C@H]21	10.4	9.0[16.7 µM]	.	1.0	-5.1
4	CC(C)NC(=O)N[C@H]1CC[C@@H](CC(=O)NCc2ccc(Oc3ccccc3)cc2)O[C@H]1CO	-2.1	.	.	78.4	32.0
5	CCOC(=O)c1c(CN(C)C)n(C)c2c(O)c(N=NC(N)=O)c3ccc(Br)cc3c12	1.2	.	28.1*	2.2	-9.8
6	CCOc1ncccc1C(=O)N1CCN(c2cc(Cl)ccc2C)CC1	.	.	30.2*	.	.
7	O=C(Nc1nc2ccc(S(=O)(=O)N3CCCC3)cc2s1)C1CCCCC1	.	130.4*	1.1	0.5	-3.8
8	CC(C)C(=O)Nc1ccc2c(c1)C(=O)N(C)[C@@H]1CC[C@@H](CC(=O)NC3CCCC3)O[C@H]1CO2	-21.2	-20.0[16.7 µM]	.	-1.4	3.0
9	Cc1ccc(/C=N/n2nnnc2N)o1	1.0	-16.4	4.0	0.6	-23.0
10	Cc1nn(C)cc1/C=N/n1nnnc1N	107.0*	-4.3	3.1	1.0	-7.0
11	CCOC(=O)c1ccc(-c2ccc3c(=O)c4ccccc4n(C)c3c2)cc1F	0.8	.	2.6	-0.8	-17.2
12	Cc1cccc(C)c1OCC(=O)N(Cc1ccc(N(C)C)cc1)C1CCS(=O)(=O)C1 (stereo not drawn)	1.6	-5.2	2.0	-0.4	7.1
13	Cc1ccc(S(=O)(=O)N(C)C[C@@H]2Oc3ccc(NC(=O)Nc4c(C)noc4C)cc3C(=O)N([C@@H](C)CO)C[C@@H]2C)cc1	6.7	46.2[16.7 µM]	.	3.0	-2.1
14	COc1cc(S(=O)(=O)N2CCN(C(=O)c3ccccc3F)CC2)c(OC)cc1NC(C)=O	101.8*	-1.5	0.2	1.8	-11.9
15	COc1ccc(S(=O)(=O)N2CCN(C)CC2)cc1NC(=O)c1ccccc1F	-14.1	11.6	1.5	5.7	-15.7
16	CC1(C)NC(=O)N(CC(=O)N2CCN(c3ccc([N+](=O)[O-])cc3)CC2)C1=O	0.6	.	4.2	0.1	-12.4
17	Cc1ccc(S(=O)(=O)Nc2ccc3c(c2)C(=O)N([C@@H](C)CO)C[C@@H](C)[C@@H](CN(C)C(=O)Nc2cccc4ccccc24)O3)cc1	33.8	-2.5[16.7 µM]	.	-8.8	-9.3
18	C[C@@H]1CCCCO[C@@H](CN(C)C(=O)Nc2ccc(F)cc2)[C@H](C)CN([C@@H](C)CO)C(=O)c2cc(NC(=O)Nc3ccccc3)ccc2O1	9.3	-8.3[16.7 µM]	.	-1.3	-11.1
19	O=C(CCN1CCc2ccccc21)c1ccc2c(c1)OCCO2	115.1*	-5.6	-0.1	-1.2	-12.1
20	COc1cc(SC)ccc1C(=O)NC1CCCCC1	80.8*	1.9	1.7	1.5	-10.2
21	C#CNC(=O)C1(CC=C)CCNCC1	100.3*	-5.4	3.9	-0.3	0.7
22	Cc1ccccc1OC1C(=O)N(Cc2ccc3c(c2)OCO3)C1c1sccc1C (stereo not drawn)	-17.6	157.9*	-10.6	.	.
23	O=C1C(Oc2ccccc2)C(c2cccs2)N1Cc1ccc2c(c1)OCO2 (stereo not drawn)	4.1	71.0	-4.5	7.4	-13.4
24	COc1ccc2c(C)nc(Nc3nc(-c4ccccc4)cc(=O)[nH]3)nc2c1	-25.7	-4.5	94.2*	2.0	-15.4
25	COc1ccc(S(=O)(=O)NC2CC3CCC2C3)cc1Br (stereo not drawn)	4.3	83.7	-1.9	2.9	-9.9
26	O=S(=O)(NC1CC2CCC1C2)c1ccc2c(c1)OCCO2 (stereo not drawn)	3.5	126.1*	-0.3	-2.9	1.9
27	COc1ccc(S(=O)(=O)NC2CC3CCC2C3)cc1Cl (stereo not drawn)	-3.1	107.6*	-0.2	1.3	-11.1
28	CN(C)CC#Cc1ccc([C@H]2[C@@H](CO)N3CCCCN(C(=O)Nc4cc(F)ccc4F)C[C@@H]23)cc1	.	-4.4[16.7 µM]	.	-2.2	-9.3
29	COc1ccc(N(C=O)C(C(=O)Nc2c(C)cccc2C)c2ccccc2)cc1 (stereo not drawn)	.	.	-1.2	.	.
30	CCn1c(CC(=O)Nc2ccc(OC)cc2)nnc1SCC(=O)N1CCOCC1	-1.7	-1.3	0.1	0.1	-14.7
31	CC1CCCCN1S(=O)(=O)c1ccc(C(=O)Nc2sccc2C(N)=O)cc1 (stereo not drawn)	108.7*	-1.6	-1.5	-2.5	-3.2
32	NC(=O)c1ccsc1NC(=O)C1CCCN1S(=O)(=O)c1ccc(Cl)cc1 (stereo not drawn)	20.2	-11.2	1.8	5.6	-3.1
33	CCC(=O)N1[C@@H]2c3ccc(C4=CCCC4)c(=O)n3C[C@H]1[C@H](CO)[C@H]2C(=O)N[C@H](C)c1ccccc1	-13.7	3.2[16.7 µM]	.	1.4	.
34	CC(=O)N1[C@@H]2c3ccc(-c4ccccc4)c(=O)n3C[C@H]1[C@H](CO)[C@H]2C(=O)Nc1ccccc1	19.8	.	.	87.3*	.
35	CCC(=O)N1[C@@H]2Cn3c(ccc(C4=CCCCC4)c3=O)[C@H]1[C@@H](C(=O)N[C@H](C)c1ccccc1)[C@@H]2CO	-14.5	-4.7[16.7 µM]	.	93.3*	25.9
36	CCN1[C@@H]2c3ccc(-c4ccccc4)c(=O)n3C[C@H]1[C@H](CO)[C@H]2C(=O)Nc1ccccc1	5.4	-1.6[16.7 µM]	.	2.9	2.4
37	COCC(=O)N1C[C@H]2[C@@H](c3ccccc31)[C@@H](CO)N2C(=O)Nc1ccccc1Cl	-3.2	-3.8[16.7 µM]	.	-2.9	18.4
38	Cc1cccc(OCC(=O)Nc2cc(C)on2)c1	122.0*	2.1	-0.1	-2.1	-13.4
39	COc1ccccc1CC(=O)Nc1cc(C)on1	1.5	-2.7	1.4	5.3	-6.3
40	COc1ccc(CC(=O)Nc2cc(C)on2)cc1OC	111.3*	-8.8	4.0	0.0	-21.0
41	O=C(N[C@@H]1CC[C@@H](CCNC(=O)C2CCCC2)O[C@H]1CO)c1ccccn1	-0.6	-7.9[16.7 µM]	.	-3.9	-2.1
42	CO[C@H]1CN(C)C(=O)c2cc(NC(=O)Nc3ccccc3)ccc2OC[C@@H](C)N(CC2CC2)C[C@@H]1C	-9.8	-13.2[16.7 µM]	.	-5.7	4.3
43	O=c1c2ccccc2n(Cc2ccc(F)cc2)c(=O)n1C1CCCC1	116.0*	-1.4	-7.2	-2.0	-6.5
44	Cc1ccc(C(=O)Cn2nnc3ccccc32)cc1[N+](=O)[O-]	.	-3.0	1.7	3.3	-10.7
45	Cc1ccc(C(=O)n2nnc3ccccc32)cc1[N+](=O)[O-]	1.3	0.1	4.3	91.4*	-4.2
46	CCNC(=O)C[C@@H]1CC[C@H]2[C@@H](COC[C@@H](O)CN2S(=O)(=O)c2ccc(Oc3ccccc3)cc2)O1	-9.8	-5.2[16.7 µM]	.	-0.8	5.9
47	CCCCOc1ccc(C(O)(CCN2CCOCC2)c2ccccc2)cc1 (stereo not drawn)	-10.3	1.8	-1.5	3.9	4.5
